Among the data in patent US8937193B2, “Apogossypolone derivatives as anticancer agents” (Sanford-Burnham Medical Research Institute, priority 2009, dated 2015) are EC50, IC50 and toxicity values, retold here.

Chains of the proteins cited; added tags and fusions are not shown.
UniProt Q07817, whole entry: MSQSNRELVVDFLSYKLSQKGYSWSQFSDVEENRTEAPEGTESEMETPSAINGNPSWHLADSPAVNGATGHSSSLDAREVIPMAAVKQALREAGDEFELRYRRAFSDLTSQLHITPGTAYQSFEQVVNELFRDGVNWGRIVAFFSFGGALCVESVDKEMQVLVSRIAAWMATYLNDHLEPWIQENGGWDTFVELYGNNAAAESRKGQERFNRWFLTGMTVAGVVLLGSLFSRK

Series [1] relates to BP3 cell line. The series is described as follows: Annexin V-FITC and propidium iodide apoptosis assay, BP3. The class given is cell-based, human. To be noted: read-out: EC50 BP3; Table 5.
For series [2], the system named is H460 cell line. The series is described as follows: ATP-LITE cell viability assay, H460. The series is classed as cell-based, human. To be noted: read-out: EC50 H460; Table 5.
The test system of series [3] is H1299 cell line. Kind of series: ATP-LITE cell viability assay, H1299. The class given is cell-based, human. To be noted: read-out: EC50 H1299; Table 5.
The subject of series [4] is RS4;11 cell line. Kind of series: Annexin V-FITC and propidium iodide apoptosis assay, RS4;11. The class given is cell-based, human. To be noted: read-out: EC50 RS4;11; Table 5.
Series [5] concerns the target Bcl-XL (Homo sapiens (Human), UniProt Q07817). Kind of series: Fluorescence polarization competitive binding assay (FPA), Bcl-XL. To be noted: read-out: IC50 Bcl-XL; Table 6, FPA.
The test system of series [6] is B6-Bcl-2 transgenic mice (spleen weight). The series is described as follows: B6-Bcl-2 transgenic mice spleen weight study. To be noted: single ip injection of 0.06 and 0.12 mmol/kg.

Consider `CC1=C(C2=C(C)C(=O)c3c(cc(O)c(O)c3CC3CCCC3)C2=O)C(=O)c2cc(O)c(O)c(CC3CCCC3)c2C1=O` [Compound 6c, 5,5′-bis(cyclopentylmethyl)-6,6′,7,7′-tetrahydroxy-3,3′-dimethyl-2,2′-binaphthyl-1,1′,4,4′-tetraone], for which the EC50 in series [1] came to 12.4 µM; in series [2], 0.7 µM; in series [3] it was 2.3 µM; in series [4] it was 10.1 µM.
Consider `CC1=C(C2=C(C)C(=O)c3c(cc(O)c(O)c3C(=O)Cc3ccccc3)C2=O)C(=O)c2cc(O)c(O)c(C(=O)Cc3ccccc3)c2C1=O` [Compound 7, 6,6′,7,7′-Tetrahydroxy-3,3′-dimethyl-5,5′-bis(2-phenylacetyl)-2,2′-binaphthyl-1,1′,4,4′-tetraone], for which the EC50 in series [1] was 6.1 µM; in series [2] it was 7.4 µM; in series [3], 10 µM; in series [4], more than 30 µM. The IC50 in series [5] turned out to be 0.36 µM.
Turning to `CC1=C(C2=C(C)C(=O)c3c(cc(O)c(O)c3CCC3CCCCC3)C2=O)C(=O)c2cc(O)c(O)c(CCC3CCCCC3)c2C1=O` [Compound 6d, 5,5′-bis(2-cyclohexylethyl)-6,6′,7,7′-tetrahydroxy-3,3′-dimethyl-2,2′-binaphthyl-1,1′,4,4′-tetraone], the EC50 is 15.5 µM in series [1] and 1.3 µM in series [3]. Further, the toxicity result in series [6] is recorded as “did not show any toxicity”.
Take `CC1=C(C2=C(C)C(=O)c3c(cc(O)c(O)c3CC(C)C)C2=O)C(=O)c2cc(O)c(O)c(CC(C)C)c2C1=O` [Compound 6b, 6,6′,7,7′-tetrahydroxy-5,5′-diisobutyl-3,3′-dimethyl-2,2′-binaphthyl-1,1′,4,4′-tetraone]: the toxicity entry in series [6] is given as “did not show any toxicity”.
As to `CC1=C(C2=C(C)C(=O)c3c(cc(O)c(O)c3C(=O)NCC(C)c3ccccc3)C2=O)C(=O)c2cc(O)c(O)c(C(=O)NCC(C)c3ccccc3)c2C1=O` (stereo not shown) [Compound 8a, 6,6′,7,7′-Tetrahydroxy-3,3′-dimethyl-1,1′,4,4′-tetraoxo-N^5,N^5′-bis(2-phenylpropyl)-1,1′,4,4′-tetrahydro-2,2′-binaphthyl-5,5′-dicarboxamide], the EC50 is 30 µM in series [3] and more than 30 µM in series [4].
Consider `CCc1ccc(CCNC(=O)c2c(O)c(O)cc3c2C(=O)C(C)=C(C2=C(C)C(=O)c4c(cc(O)c(O)c4C(=O)NCCc4ccc(CC)cc4)C2=O)C3=O)cc1` [Compound 8c, N^5,N^5′-Bis(4-ethylphenethyl)-6,6′,7,7′-tetrahydroxy-3,3′-dimethyl-1,1′,4,4′-tetraoxo-1,1′,4,4′-tetrahydro-2,2′-binaphthyl-5,5′-dicarboxamide], for which the EC50 in series [4] was more than 30 µM.
